Measured values from patent US20260355192A1, “PROPHYLACTIC OR THERAPEUTIC AGENT FOR PERIOSTIN-MEDIATED DISEASE AND PRURITUS ASSOCIATED THEREWITH” (SAGA UNIVERSITY, priority 2022, published 2026).

Sequences of proteins named here, by UniProt entry; tags and fusion partners are left off. Residues count along the entry.
UniProt P05106, 27-788: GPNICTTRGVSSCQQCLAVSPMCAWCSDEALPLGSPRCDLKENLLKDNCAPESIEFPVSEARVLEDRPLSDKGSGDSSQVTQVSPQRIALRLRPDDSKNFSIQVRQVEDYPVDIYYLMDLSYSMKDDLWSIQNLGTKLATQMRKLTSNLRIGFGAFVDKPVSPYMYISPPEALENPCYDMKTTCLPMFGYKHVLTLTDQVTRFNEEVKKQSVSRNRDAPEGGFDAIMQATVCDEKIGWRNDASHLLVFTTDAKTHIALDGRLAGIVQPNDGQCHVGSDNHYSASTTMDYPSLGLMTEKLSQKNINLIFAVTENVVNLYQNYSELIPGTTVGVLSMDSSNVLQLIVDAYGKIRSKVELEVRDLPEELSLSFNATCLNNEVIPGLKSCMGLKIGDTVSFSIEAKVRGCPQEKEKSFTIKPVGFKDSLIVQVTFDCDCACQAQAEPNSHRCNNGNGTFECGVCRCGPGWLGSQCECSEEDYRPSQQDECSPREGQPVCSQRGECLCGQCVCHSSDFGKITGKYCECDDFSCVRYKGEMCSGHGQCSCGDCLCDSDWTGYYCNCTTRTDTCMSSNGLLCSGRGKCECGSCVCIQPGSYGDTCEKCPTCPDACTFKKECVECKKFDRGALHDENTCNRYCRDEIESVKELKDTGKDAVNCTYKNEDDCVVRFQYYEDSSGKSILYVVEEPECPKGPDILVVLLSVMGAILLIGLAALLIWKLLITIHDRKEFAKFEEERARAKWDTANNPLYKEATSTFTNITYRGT
UniProt P06756, 891-1048 partner limits assumed: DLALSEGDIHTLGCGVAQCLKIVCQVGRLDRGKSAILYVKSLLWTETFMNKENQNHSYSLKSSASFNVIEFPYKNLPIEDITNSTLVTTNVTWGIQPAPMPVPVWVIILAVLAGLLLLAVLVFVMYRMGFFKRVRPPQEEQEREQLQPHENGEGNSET
UniProt P06756, 31-889 limits assumed: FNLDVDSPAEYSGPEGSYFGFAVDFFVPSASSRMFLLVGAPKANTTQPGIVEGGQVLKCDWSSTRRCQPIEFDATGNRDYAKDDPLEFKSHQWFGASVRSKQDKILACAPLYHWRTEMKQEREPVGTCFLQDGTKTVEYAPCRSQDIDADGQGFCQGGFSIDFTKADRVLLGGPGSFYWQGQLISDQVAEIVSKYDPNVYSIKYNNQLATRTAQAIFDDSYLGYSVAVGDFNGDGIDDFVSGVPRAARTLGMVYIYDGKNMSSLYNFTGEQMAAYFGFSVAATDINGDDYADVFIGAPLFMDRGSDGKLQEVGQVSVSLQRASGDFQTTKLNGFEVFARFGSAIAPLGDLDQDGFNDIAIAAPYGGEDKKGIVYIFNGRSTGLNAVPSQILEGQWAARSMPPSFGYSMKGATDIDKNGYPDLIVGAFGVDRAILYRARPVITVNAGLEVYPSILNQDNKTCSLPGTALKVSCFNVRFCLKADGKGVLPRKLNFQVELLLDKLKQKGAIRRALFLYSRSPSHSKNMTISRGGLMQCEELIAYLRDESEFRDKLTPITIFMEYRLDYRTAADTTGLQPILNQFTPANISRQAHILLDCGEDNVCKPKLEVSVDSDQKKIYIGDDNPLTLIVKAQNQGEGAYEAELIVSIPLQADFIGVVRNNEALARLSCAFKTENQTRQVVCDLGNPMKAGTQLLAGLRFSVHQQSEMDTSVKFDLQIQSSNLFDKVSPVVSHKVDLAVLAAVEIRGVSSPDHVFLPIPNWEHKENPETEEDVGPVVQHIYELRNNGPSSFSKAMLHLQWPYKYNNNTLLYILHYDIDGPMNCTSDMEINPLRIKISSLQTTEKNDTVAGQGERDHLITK

Target: T1, integrin αvβ3 (Homo sapiens, UniProt P05106+P06756)
T1 construct: SW480 cells, a human colon cancer cell line not expressing integrin β3; expressed in transfected cells; host or cells: SW480 cells (human colon cancer) stably expressing human integrin β3
Assay: Inhibition of periostin-dependent adhesion of SW480 cells expressing integrin αvβ3
Format: cell-based
Conditions: SW480 cells expressing human integrin β3; immobilized recombinant human periostin; compounds at 0.001-1 μM; FIG. 6; read-out: 50% inhibition concentration (IC50 value) for cell adhesion inhibitory activity
Protocol: For use in cell adhesion experiments, SW480 cells, a human colon cancer cell line not expressing integrin β3, were genetically engineered to stably express human integrin β3 (Nanri Y, et al. Am J Respir Cell Mol Biol. 62:204-216, 2020). The compounds shown in Table 1 were examined for their inhibitory activity against adhesion between integrin αvβ3 and periostin according to the following procedures. First, a 96-well plate was treated with 10 μg/mL recombinant human periostin (Bio-Techne) at 4 °C for 16 hours to immobilize periostin. The SW480 cells expressing integrin αvβ3 (5×10^4 cells) were reacted at room temperature for 15 minutes with the above compounds at 0.001, 0.01, 0.1 and 1 μM in serum-free DMEM (Dulbecco's Modified Eagle Medium) containing 0.5% bovine serum albumin and 0.25 mM MnCl2. A group receiving no compound was used as a control. The reacted cell suspensions were added to separate wells of the above human periostin-immobilized plate, and the plate was centrifuged at 10×g for 5 minutes and then cultured at 37 °C for 60 minutes. Then, after the adhered cells were washed to remove unbound cells, the adhered cells were fixed with 1% formaldehyde and stained with 0.5% crystal violet. The fixed and stained cells were solubilized with 0.2% Triton X-100 and measured for absorbance at 595 nm. […]

IC50: ≤ 20 nM
Structure (SMILES): N=C(N)Nc1cccc(C(=O)NCC(=O)NC(CC(=O)O)c2cc(Cl)cc(Cl)c2)c1 (stereo not shown) [SC-68448, 3-(3,5-Dichlorophenyl)-3-(2-(3-guanidinobenzamido)acetamido)propanoic acid]
